Only a part is listed here, and it is no random draw. Some salts and complexes are drawn in separate pieces, as the source files them; their charges need not balance. Active and inactive are the calls of the source.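 How the source made its calls: active means activation above the mean activation of all test compounds in the run plus 3 SD (cut at about 38% in these data); inactive means the rest.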

Chains of the proteins cited; added tags and fusions are not shown.
UniProt Q96RJ0, whole entry: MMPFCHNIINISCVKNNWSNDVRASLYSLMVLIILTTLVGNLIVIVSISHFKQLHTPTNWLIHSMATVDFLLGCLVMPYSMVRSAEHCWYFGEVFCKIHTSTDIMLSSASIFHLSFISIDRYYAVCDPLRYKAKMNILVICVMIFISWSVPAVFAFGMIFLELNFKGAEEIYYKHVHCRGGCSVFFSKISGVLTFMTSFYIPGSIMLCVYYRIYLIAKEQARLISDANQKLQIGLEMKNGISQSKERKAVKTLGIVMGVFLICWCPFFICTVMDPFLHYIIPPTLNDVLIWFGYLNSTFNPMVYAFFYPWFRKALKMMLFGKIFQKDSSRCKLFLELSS

This test has as its target Trace amine-associated receptor 1 (Homo sapiens) (UniProt Q96RJ0). Description: activators of TAAR1 calcium mobilization – Fluo-8 calcium fluorescence, CHO RD-HGA16 cells, primary screen (AID 624467). The settings on record: CHO RD-HGA16 TAAR1, Fluo-8 calcium fluorescence; at 3 µM; hits give high values; vehicle wells 0%, saturating PEA agonist 100%.
Turning to `CCc1ccc(OP(C)(=O)Nc2cccnc2)cc1` (centres undefined), the activation is inactive: 2.09%. For `CP(=O)(Oc1ccccc1)N1CCOC1=O` (centres undefined), the activation was inactive: 2.4%.

With `O=C(OCCCN1CCCC1)C(O)(c1ccccc1)C1CCCCC1` (centres undefined), the activation was inactive: 8.49%. The value for `COc1ccccc1OP(C)(=O)Nc1c(C)n(C)n(-c2ccccc2)c1=O` (centres undefined) was inactive: 5.58%; that for `COc1ccc(OP(C)(=O)Nc2ccc(Br)cc2)cc1` (centres undefined) was inactive: 2.85%; that for `CCN(CC)CC(O)COC(=O)C(O)(c1ccccc1)C1CCCCC1` (centres undefined) was inactive: 1.29%. On to `CN(C)C(=O)c1c([N+](=O)[O-])cc([N+](=O)[O-])cc1[N+](=O)[O-]`, for which the activation is inactive: 3%. The value for `CP(=O)(Nc1ccc(Cl)cc1)Oc1ccc(F)cc1` (centres undefined) was inactive: 6.76%; that for `CC(C)(C)c1ccc(OP(C)(=O)O)cc1` was inactive: 3.39%; that for `COc1ccccc1OP(C)(=O)Nc1ccccc1Br` (centres undefined) was inactive: -1.44%.

Consider `CP(=O)(OC12CC3CC(CC(C3)C1)C2)OC12CC3CC(CC(C3)C1)C2`, for which the activation was active: 64.2%.

As to `CCOC(=O)c1ccc(NP(C)(=O)Oc2ccc(Cl)cc2)cc1` (centres undefined), the activation is inactive: 1.31%. The value for `Nc1ccc2c(ccc3cccnc32)n1.O=[N+]([O-])c1cc([N+](=O)[O-])c(O)c([N+](=O)[O-])c1` was inactive: 3.47%. Consider `COc1ccc(OP(C)(=O)Nc2ccccc2Br)cc1` (centres undefined), for which the activation is inactive: 2.7%. The value for `COc1ccccc1OP(C)(=O)Nc1ccc(C)c(C)c1` (centres undefined) was inactive: 2.79%; that for `Cc1cc(C)cc(OP(C)(=O)Nc2cccc(C(F)(F)F)c2)c1` (centres undefined) was inactive: 3.77%; that for `O=C1C(O)=C([N+](=O)[O-])C(=O)C(O)=C1[N+](=O)[O-]` was inactive: 1%. The value for `CP(=O)(OCCOc1ccccc1)OCCOc1ccccc1` was inactive: 0.01%.

`CCCCCCCCCCCCCCCC1C[N+](C)(C)CCOP(C)(=O)O1` (centres undefined): the activation was inactive: 33%. In the case of `CP(=O)(Nc1ccc(Cl)cc1Cl)Oc1ccccc1` (centres undefined), the activation was inactive: 2.85%. The value for `CN(C)CCOC(=O)C(O)(c1ccccc1)C1CCCC1` (centres undefined) was inactive: 11.7%; that for `COc1ccc(OP(C)(=O)Nc2ccccn2)cc1` (centres undefined) was inactive: 15.4%; that for `COc1ccccc1OP(C)(=O)Nc1ccc(Br)cc1` (centres undefined) was inactive: 4.43%.

`CCc1ccc(OP(C)(=O)O)cc1`: the activation is inactive: 7.83%. Regarding `COc1ccccc1OP(C)(=O)Nc1ccc(C)cc1C` (centres undefined), the activation is inactive: -0.1%. Regarding `CP(=O)(Nc1ccccn1)Oc1ccccc1` (centres undefined), the activation was inactive: 16.5%. As for `O=[N+]([O-])c1cc([N+](=O)[O-])c(Nc2ccccn2)c([N+](=O)[O-])c1`, the activation was inactive: 9.91%. On to `Cc1c(NP(C)(=O)Oc2ccc(C(C)C)cc2)c(=O)n(-c2ccccc2)n1C` (centres undefined), for which the activation was inactive: 10.8%. The value for `CC(C)c1ccc(OP(C)(=O)Nc2ccc(SC(F)(F)F)cc2)cc1` (centres undefined) was inactive: 5.56%; that for `CP(=O)(Nc1ccccc1F)Oc1ccccc1` (centres undefined) was inactive: 12.8%. The value for `O=[N+]([O-])c1cc([N+](=O)[O-])c(Nc2ccc(Cl)cc2)c([N+](=O)[O-])c1` was inactive: 4.47%; that for `COc1ccc2c(c1O)-c1c(O)c(OC)cc3c1[C@H](C2)[N+](C)(C)CC3.O=[N+]([O-])c1cc([N+](=O)[O-])c([O-])c([N+](=O)[O-])c1[O-]` was inactive: 5.42%; that for `O=C(OCCN1CCN(CCOCc2ccccc2)CC1)C(O)(c1ccccc1)c1ccccc1` was inactive: 2.88%. Consider `O=C(OC1CN2CCC1CC2)c1ccc([N+](=O)[O-])cc1` (centres undefined), for which the activation is inactive: 8.65%.

`COc1ccc(OP(C)(=O)Nc2ccc(SC(F)(F)F)cc2)cc1` (centres undefined): the activation is inactive: 11.7%. Regarding `CCOC(=O)c1ccc(NP(C)(=O)Oc2ccc(F)cc2)cc1` (centres undefined), the activation was inactive: 1.22%. `CCN(CC)CCCNc1ccccc1[N+](=O)[O-].O=[N+]([O-])c1cc([N+](=O)[O-])c(O)c([N+](=O)[O-])c1`: the activation was inactive: -0.42%. Take `CCCCCOc1ccc(NP(C)(=O)Oc2ccc(Cl)cc2Cl)cc1` (centres undefined): the activation was inactive: 3.29%. As for `O=[N+]([O-])c1cc([N+](=O)[O-])c(OC2CCCCC2O)c([N+](=O)[O-])c1` (centres undefined), the activation was inactive: 4.14%. Take `CP(=O)(Nc1ccccc1)Oc1ccc(F)cc1` (centres undefined): the activation was inactive: 4.06%.

With `CCN(CC)CCCOC(=O)C(O)(c1ccccc1)C1CCCCC1` (centres undefined), the activation was inactive: 4.23%. With `Cc1c([N+](=O)[O-])cc([N+](=O)[O-])c(Br)c1[N+](=O)[O-]`, the activation is inactive: 2.14%. Take `COc1ccc(NP(C)(=O)Oc2ccccc2OC)cc1` (centres undefined): the activation was inactive: 3.76%. The value for `CN(C)CCOC(=O)C(O)(c1ccccc1)C1CCCCC1` (centres undefined) was inactive: 10.2%. On to `COc1ccc(OP(C)(=O)Nc2cccc(Br)c2)cc1` (centres undefined), for which the activation is inactive: 0.75%. On to `Cc1c(C(c2ccc3c(c2)OCO3)c2c(C)n(C)n(-c3ccccc3)c2=O)c(=O)n(-c2ccccc2)n1C.O=[N+]([O-])c1cc([N+](=O)[O-])c(O)c([N+](=O)[O-])c1`, for which the activation is inactive: -0.13%. The value for `Cc1cc(-c2cccc3ccccc23)c(C)cn1.O=[N+]([O-])c1cc([N+](=O)[O-])c(O)c([N+](=O)[O-])c1` was inactive: 14.4%; that for `O=[N+]([O-])c1cc([N+](=O)[O-])c(NCC2CCS(=O)(=O)C2)c([N+](=O)[O-])c1` (centres undefined) was inactive: 11.1%. Take `O=[N+]([O-])c1ccc(OP2(=O)COCCO2)cc1` (centres undefined): the activation was inactive: -0.33%. Turning to `CCOP(=O)(CC)OCC`, the activation was inactive: 0.4%.

As to `CCOP(C)(=S)SCC(=O)NC(C)(CC)C(=O)O` (centres undefined), the activation was inactive: 0.06%. The value for `CP(=O)(Nc1ccc(SC(F)(F)F)cc1)Oc1ccc(F)cc1` (centres undefined) was inactive: 7.03%.

As for `O=[N+]([O-])c1cc([N+](=O)[O-])c(C(F)(F)F)c([N+](=O)[O-])c1O`, the activation is inactive: 9.79%. As for `Cc1ccccc1NP(C)(=O)Nc1ccccc1C`, the activation is inactive: 3.5%.

As to `CP(=O)(Nc1ccc2c(c1)OCCO2)Oc1ccccc1` (centres undefined), the activation was inactive: 7.78%. The value for `CN(Cc1cccnc1)C(=O)COc1ccc(Cl)c(Cl)c1.O=[N+]([O-])c1cc([N+](=O)[O-])c(O)c([N+](=O)[O-])c1` was inactive: 6.03%; that for `O=[N+]([O-])c1cc([N+](=O)[O-])c(-n2nnc3ccccc32)c([N+](=O)[O-])c1` was inactive: 16.6%. Turning to `Cc1nc2ccc3ccccc3c2s1.O=[N+]([O-])c1cc([N+](=O)[O-])c(O)c([N+](=O)[O-])c1`, the activation is inactive: 2.66%. Consider `O=[N+]([O-])c1cc([N+](=O)[O-])c(-c2cnn(-c3ccccc3)c2)c([N+](=O)[O-])c1`, for which the activation was inactive: -0.43%.

For the molecule `CCOC(=O)C(CC)C1=NC(C)(C)Cc2ccccc21.O=[N+]([O-])c1cc([N+](=O)[O-])c(O)c([N+](=O)[O-])c1` (centres undefined), the activation was inactive: -3.36%. The value for `O=[N+]([O-])c1cc([N+](=O)[O-])c(Nc2nnnn2CCO)c([N+](=O)[O-])c1` was inactive: 0.24%; that for `CP(=O)(Nc1ccc(SC(F)(F)F)cc1)Oc1ccccc1` (centres undefined) was inactive: 5.05%. Regarding `CCCOc1ccc(NP(C)(=O)Oc2ccc(Cl)cc2)cc1` (centres undefined), the activation was inactive: 6.18%. The value for `COc1ccc(-c2ccccn2)cc1.O=[N+]([O-])c1cc([N+](=O)[O-])c(O)c([N+](=O)[O-])c1` was inactive: 1.04%. The value for `COc1ccccc1OP(C)(=O)Nc1c(C)cccc1C` (centres undefined) was inactive: 0.94%; that for `CN1CCCCC1COC(=O)C1(O)c2ccccc2CCc2ccccc21` (centres undefined) was inactive: 3.25%. In the case of `O=C(O)c1cccc(Nc2c([N+](=O)[O-])cc([N+](=O)[O-])cc2[N+](=O)[O-])c1`, the activation is inactive: -0.03%.

For the molecule `CC1=NCCc2c1[nH]c1ccccc21.O=[N+]([O-])c1cc([N+](=O)[O-])c(O)c([N+](=O)[O-])c1`, the activation is inactive: 2.35%. Consider `Cc1cc(C)cc(OP(C)(=O)Nc2ccc(C)cc2C)c1` (centres undefined), for which the activation is inactive: 2.21%. Take `CCOC(=O)c1ccc(NP(C)(=O)Oc2cc(C)cc(C)c2)cc1` (centres undefined): the activation is inactive: 7.49%. The value for `COc1ccccc1OP(C)(=O)Nc1cccc(Br)c1` (centres undefined) was inactive: -2.01%; that for `CP(=O)(Nc1cccc(Br)c1)Oc1ccccc1` (centres undefined) was inactive: 7.88%. Turning to `Cc1cc(C)cc(OP(C)(=O)Nc2ccccn2)c1` (centres undefined), the activation is inactive: 7.31%. The value for `Cc1ccc(C)c(NP(C)(=O)Oc2ccccc2)c1` (centres undefined) was inactive: 3.36%; that for `CCN(CC)CCCOC(=O)C(O)(c1ccccc1)c1ccccc1` was inactive: 2.45%. Regarding `COc1ccccc1-c1ccccn1.O=[N+]([O-])c1cc([N+](=O)[O-])c(O)c([N+](=O)[O-])c1`, the activation is inactive: 0.04%. Regarding `Cc1cccc(C)c1OP(C)(N)=O` (centres undefined), the activation was inactive: 0.36%. Regarding `CC(C)(C)c1ccc(OP(C)(=O)Nc2ccc(SC(F)(F)F)cc2)cc1` (centres undefined), the activation was inactive: -1.06%. Consider `O=[N+]([O-])c1ccc2c(c1)C=Nc1ccccc1O2`, for which the activation is inactive: 1.72%. For `O=[N+]([O-])c1cc([N+](=O)[O-])c(Nc2cccnc2)c([N+](=O)[O-])c1`, the activation is inactive: 15.3%.

`COc1ccc(OP(C)(=O)Nc2cccc(F)c2)cc1` (centres undefined): the activation was inactive: 10.8%. Regarding `COc1ccccc1OP(C)(=O)Nc1cc(Cl)ccc1C` (centres undefined), the activation is inactive: 3.42%. Consider `Cc1cc(C)cc(OP(C)(N)=O)c1` (centres undefined), for which the activation is inactive: 1.44%. Turning to `CCOC(=O)c1ccc(NP(C)(=O)Oc2ccccc2)cc1` (centres undefined), the activation is inactive: 2.75%.

With `Cc1ccc(NP(C)(=O)Oc2ccccc2)c(C)c1` (centres undefined), the activation is inactive: 0.38%. The value for `COc1ccccc1OP(C)(=O)Nc1ccc(C)cc1` (centres undefined) was inactive: 0.91%. The value for `COc1ccccc1OP(C)(=O)Nc1ccccc1` (centres undefined) was inactive: 2.88%. `CP(=O)(Nc1ccccc1Br)Oc1ccccc1` (centres undefined): the activation is inactive: 0.52%.

Take `CP(=S)(Nn1cnnc1)Oc1ccccc1` (centres undefined): the activation was inactive: 1.6%. `Cc1cc(C)cc(OP(C)(=O)Nc2ccc(SC(F)(F)F)cc2)c1` (centres undefined): the activation is inactive: 5.88%.

As to `CCc1ccc(OP(C)(=O)N2CCN(c3ccc([N+](=O)[O-])cc3)CC2)cc1` (centres undefined), the activation is inactive: 10.7%. The value for `CP(=O)(NC(=O)Nc1ccccc1)Oc1ccccc1` (centres undefined) was inactive: 5.83%; that for `CP(=O)(Oc1ccccc1)OC(c1ccccc1)C(F)(F)F` (centres undefined) was inactive: -2.44%; that for `Cc1cccc(C)c1OP(C)(=O)Nc1ccc(SC(F)(F)F)cc1` (centres undefined) was inactive: 7.88%. The value for `CP(=O)(Nc1ccc(SC(F)(F)F)cc1)Oc1ccc(Cl)cc1` (centres undefined) was inactive: 1.95%; that for `CP(=O)(Nc1ccccn1)Oc1ccc(Cl)cc1` (centres undefined) was inactive: -0.52%. The value for `CCOP(C)(=S)SCC(=O)NC(C)C(=O)O` (centres undefined) was inactive: 1.21%; that for `CCOC(=O)c1ccc(NP(C)(=O)Oc2ccc(OC)cc2)cc1` (centres undefined) was inactive: 2.08%. In the case of `O=[N+]([O-])c1cc([N+](=O)[O-])c(O)c([N+](=O)[O-])c1.c1ccc(Oc2ccncc2)cc1`, the activation was inactive: 7.7%.

For the origin of these results see PubChem BioAssay AID624467 (The Scripps Research Institute Molecular Screening Center, 2012).
